In PMC3586182 (Clinical Drug Investigation, 2012):

Details: healthy volunteers, 5 mg/kg 4-h IV infusion, either formulation

ciclosporin
Changes in laboratory values or ECG-findings: no clinically significant or consistent changes
